# Experimental data reported in ChEMBL document CHEMBL2218924, “A broad activity screen in support of a chemogenomic map for kinase signalling research and drug discovery” (Biochem J, 2013).
# By UniProt entry, the sequences of proteins in these tests, tags left out. Where a name states a change or a piece, a line headed by the entry shows the natural chain unless it says otherwise.
# UniProt O15111: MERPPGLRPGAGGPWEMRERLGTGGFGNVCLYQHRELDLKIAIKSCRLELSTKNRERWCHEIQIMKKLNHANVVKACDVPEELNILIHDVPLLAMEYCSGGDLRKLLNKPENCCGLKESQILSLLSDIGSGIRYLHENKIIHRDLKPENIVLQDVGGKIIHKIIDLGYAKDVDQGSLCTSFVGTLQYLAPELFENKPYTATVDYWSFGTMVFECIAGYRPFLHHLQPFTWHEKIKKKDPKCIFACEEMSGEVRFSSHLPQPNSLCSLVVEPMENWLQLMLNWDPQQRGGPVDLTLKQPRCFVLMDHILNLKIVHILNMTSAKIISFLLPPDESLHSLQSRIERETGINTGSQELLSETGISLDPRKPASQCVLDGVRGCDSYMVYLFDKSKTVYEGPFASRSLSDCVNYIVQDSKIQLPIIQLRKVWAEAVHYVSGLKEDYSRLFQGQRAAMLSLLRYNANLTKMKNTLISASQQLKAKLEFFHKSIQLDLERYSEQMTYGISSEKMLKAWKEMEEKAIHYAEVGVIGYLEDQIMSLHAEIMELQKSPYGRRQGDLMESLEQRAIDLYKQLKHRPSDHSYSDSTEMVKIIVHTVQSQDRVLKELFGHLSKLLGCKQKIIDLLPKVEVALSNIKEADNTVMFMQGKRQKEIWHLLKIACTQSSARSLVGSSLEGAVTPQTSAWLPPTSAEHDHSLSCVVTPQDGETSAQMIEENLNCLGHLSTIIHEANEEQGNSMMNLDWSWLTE
# UniProt Q5VT25: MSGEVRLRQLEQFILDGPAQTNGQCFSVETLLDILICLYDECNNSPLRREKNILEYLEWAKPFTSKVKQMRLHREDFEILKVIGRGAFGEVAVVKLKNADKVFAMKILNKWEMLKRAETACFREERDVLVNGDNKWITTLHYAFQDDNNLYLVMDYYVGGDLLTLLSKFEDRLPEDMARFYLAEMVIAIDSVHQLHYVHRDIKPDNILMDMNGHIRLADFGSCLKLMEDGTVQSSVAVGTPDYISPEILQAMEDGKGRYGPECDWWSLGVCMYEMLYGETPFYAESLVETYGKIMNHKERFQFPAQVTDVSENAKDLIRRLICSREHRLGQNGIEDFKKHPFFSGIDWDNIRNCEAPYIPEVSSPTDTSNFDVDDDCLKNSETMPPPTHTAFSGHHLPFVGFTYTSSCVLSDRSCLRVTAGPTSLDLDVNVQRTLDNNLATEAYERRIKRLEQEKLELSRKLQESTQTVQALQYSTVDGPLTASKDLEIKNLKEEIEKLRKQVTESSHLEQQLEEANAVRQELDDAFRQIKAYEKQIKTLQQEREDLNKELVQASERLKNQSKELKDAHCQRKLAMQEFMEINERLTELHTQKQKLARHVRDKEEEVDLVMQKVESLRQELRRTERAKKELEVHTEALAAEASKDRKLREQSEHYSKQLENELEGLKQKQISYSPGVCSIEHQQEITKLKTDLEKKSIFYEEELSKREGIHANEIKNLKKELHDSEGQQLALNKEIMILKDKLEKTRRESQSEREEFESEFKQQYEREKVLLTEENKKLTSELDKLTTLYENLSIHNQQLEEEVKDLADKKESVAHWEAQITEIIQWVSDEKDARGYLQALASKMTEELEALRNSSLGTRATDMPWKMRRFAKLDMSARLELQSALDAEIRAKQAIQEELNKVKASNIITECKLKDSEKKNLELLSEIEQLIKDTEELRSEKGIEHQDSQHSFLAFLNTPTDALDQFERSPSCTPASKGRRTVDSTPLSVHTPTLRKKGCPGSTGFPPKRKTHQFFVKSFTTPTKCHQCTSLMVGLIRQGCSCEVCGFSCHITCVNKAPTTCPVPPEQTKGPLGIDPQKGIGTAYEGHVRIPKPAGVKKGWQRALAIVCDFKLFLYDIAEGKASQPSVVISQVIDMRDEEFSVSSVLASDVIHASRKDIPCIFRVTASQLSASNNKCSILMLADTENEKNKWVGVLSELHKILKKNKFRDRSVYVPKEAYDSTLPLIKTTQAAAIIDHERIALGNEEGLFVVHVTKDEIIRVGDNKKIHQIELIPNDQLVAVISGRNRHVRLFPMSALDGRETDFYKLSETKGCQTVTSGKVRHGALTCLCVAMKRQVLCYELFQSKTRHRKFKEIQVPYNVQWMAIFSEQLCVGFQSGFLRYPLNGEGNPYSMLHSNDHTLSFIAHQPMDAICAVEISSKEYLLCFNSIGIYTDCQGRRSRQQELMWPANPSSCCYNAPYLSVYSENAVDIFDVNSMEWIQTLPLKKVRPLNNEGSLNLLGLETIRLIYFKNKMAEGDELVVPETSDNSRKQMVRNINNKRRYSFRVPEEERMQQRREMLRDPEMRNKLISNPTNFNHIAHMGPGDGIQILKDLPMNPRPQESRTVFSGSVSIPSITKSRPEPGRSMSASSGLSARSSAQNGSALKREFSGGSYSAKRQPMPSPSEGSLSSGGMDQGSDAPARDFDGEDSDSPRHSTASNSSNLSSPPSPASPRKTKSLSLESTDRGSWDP
# UniProt Q9Y5S2: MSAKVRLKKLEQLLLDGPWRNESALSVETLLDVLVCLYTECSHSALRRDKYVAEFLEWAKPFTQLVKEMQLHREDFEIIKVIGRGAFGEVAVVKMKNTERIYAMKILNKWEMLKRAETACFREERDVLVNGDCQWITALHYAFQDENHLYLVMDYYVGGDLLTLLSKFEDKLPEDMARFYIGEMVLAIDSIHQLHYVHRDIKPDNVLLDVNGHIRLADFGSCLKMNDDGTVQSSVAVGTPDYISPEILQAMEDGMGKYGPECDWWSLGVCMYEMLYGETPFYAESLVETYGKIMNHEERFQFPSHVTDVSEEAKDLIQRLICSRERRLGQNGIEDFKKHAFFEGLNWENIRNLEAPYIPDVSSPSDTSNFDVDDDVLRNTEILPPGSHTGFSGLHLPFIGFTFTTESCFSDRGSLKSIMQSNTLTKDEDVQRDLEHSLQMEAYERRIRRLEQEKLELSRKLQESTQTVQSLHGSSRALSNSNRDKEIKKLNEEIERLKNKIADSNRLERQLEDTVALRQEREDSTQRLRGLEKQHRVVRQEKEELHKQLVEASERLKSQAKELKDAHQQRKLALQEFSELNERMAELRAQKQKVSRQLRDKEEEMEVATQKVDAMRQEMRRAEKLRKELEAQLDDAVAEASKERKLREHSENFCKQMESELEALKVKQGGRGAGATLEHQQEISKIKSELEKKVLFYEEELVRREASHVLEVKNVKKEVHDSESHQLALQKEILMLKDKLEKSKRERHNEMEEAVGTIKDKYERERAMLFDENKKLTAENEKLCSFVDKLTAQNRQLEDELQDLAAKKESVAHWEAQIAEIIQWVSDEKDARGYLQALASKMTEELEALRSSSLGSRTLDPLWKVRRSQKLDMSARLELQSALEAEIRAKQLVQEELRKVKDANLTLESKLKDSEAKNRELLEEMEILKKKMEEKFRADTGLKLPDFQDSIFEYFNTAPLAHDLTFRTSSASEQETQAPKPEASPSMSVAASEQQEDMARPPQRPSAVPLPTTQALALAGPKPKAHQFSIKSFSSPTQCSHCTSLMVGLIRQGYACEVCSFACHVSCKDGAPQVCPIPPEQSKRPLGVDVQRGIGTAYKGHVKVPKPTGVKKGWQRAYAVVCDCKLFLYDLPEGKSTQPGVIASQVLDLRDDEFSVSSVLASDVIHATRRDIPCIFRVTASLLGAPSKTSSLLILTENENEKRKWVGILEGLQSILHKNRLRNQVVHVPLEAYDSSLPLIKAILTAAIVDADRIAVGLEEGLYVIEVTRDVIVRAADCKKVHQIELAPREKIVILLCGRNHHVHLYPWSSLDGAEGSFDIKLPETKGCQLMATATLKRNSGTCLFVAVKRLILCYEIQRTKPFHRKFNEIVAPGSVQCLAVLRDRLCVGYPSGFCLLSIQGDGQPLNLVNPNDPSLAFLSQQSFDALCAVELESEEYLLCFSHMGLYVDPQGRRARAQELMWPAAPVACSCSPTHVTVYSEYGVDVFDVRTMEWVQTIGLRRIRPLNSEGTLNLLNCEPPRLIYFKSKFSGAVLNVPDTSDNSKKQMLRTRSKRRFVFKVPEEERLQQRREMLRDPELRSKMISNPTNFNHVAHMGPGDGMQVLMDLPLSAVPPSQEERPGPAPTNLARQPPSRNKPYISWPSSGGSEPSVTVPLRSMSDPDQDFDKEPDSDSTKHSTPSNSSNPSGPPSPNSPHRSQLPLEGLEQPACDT
# UniProt O75676: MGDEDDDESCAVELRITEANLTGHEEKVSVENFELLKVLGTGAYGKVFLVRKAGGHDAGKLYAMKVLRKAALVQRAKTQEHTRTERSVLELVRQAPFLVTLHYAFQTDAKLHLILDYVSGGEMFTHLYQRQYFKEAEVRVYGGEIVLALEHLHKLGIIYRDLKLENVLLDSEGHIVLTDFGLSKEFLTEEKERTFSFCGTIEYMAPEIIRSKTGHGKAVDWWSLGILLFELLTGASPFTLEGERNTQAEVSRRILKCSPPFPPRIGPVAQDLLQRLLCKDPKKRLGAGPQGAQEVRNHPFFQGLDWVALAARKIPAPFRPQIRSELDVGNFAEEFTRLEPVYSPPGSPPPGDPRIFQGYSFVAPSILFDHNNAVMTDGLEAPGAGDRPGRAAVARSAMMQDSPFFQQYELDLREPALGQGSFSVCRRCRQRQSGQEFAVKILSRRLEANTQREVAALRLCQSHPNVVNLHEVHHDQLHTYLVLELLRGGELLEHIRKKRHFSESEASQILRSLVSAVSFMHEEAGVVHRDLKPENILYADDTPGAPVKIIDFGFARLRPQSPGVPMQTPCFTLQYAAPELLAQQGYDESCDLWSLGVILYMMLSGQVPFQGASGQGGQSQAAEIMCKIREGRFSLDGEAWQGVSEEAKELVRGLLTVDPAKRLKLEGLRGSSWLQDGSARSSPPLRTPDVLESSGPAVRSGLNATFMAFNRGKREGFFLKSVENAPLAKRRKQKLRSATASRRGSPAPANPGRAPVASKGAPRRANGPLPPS
# UniProt P08581: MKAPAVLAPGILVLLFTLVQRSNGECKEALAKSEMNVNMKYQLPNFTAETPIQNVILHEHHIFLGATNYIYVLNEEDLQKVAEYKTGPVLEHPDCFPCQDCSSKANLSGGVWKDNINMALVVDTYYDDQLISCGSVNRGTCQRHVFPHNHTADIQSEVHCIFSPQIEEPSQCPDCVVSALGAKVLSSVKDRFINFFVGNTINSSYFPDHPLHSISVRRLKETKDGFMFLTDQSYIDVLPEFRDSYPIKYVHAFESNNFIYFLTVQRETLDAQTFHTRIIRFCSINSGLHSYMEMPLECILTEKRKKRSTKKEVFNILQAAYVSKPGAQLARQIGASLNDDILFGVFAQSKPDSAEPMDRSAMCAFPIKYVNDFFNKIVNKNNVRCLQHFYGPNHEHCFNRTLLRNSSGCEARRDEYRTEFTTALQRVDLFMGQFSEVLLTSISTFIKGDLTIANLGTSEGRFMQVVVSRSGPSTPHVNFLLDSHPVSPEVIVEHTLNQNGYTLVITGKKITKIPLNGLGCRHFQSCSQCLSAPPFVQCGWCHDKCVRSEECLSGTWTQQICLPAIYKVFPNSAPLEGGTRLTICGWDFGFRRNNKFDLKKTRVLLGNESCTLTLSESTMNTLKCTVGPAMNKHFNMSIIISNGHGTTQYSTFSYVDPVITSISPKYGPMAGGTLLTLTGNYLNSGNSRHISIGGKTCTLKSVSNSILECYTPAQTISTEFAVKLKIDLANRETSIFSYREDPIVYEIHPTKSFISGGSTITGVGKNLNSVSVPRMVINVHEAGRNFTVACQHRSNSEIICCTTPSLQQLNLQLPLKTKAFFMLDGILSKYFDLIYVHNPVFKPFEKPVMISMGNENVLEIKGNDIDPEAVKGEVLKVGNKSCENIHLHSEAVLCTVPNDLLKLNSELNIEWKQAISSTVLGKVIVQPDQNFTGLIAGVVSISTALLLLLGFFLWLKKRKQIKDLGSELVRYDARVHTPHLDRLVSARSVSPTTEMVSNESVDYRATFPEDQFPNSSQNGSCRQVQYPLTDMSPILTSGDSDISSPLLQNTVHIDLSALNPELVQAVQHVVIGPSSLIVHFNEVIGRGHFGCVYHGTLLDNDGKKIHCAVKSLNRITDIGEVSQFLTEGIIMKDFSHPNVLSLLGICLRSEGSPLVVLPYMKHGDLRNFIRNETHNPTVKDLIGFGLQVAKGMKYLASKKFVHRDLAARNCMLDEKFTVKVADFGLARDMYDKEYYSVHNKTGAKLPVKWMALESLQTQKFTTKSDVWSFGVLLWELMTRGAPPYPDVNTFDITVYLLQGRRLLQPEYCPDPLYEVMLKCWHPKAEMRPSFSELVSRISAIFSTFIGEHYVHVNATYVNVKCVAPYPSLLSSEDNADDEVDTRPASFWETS
# For part of these data: Most of the strong results are listed elsewhere, so they are rarer here than in the full data. The list shows a part of the results, in another mix than the full data.
# Legend:
# [1] = target: T1, Serine/threonine-protein kinase TAO2 (Homo sapiens) (UniProt Q9UL54); settings: at 1 µM
# T1 sequence (whole entry): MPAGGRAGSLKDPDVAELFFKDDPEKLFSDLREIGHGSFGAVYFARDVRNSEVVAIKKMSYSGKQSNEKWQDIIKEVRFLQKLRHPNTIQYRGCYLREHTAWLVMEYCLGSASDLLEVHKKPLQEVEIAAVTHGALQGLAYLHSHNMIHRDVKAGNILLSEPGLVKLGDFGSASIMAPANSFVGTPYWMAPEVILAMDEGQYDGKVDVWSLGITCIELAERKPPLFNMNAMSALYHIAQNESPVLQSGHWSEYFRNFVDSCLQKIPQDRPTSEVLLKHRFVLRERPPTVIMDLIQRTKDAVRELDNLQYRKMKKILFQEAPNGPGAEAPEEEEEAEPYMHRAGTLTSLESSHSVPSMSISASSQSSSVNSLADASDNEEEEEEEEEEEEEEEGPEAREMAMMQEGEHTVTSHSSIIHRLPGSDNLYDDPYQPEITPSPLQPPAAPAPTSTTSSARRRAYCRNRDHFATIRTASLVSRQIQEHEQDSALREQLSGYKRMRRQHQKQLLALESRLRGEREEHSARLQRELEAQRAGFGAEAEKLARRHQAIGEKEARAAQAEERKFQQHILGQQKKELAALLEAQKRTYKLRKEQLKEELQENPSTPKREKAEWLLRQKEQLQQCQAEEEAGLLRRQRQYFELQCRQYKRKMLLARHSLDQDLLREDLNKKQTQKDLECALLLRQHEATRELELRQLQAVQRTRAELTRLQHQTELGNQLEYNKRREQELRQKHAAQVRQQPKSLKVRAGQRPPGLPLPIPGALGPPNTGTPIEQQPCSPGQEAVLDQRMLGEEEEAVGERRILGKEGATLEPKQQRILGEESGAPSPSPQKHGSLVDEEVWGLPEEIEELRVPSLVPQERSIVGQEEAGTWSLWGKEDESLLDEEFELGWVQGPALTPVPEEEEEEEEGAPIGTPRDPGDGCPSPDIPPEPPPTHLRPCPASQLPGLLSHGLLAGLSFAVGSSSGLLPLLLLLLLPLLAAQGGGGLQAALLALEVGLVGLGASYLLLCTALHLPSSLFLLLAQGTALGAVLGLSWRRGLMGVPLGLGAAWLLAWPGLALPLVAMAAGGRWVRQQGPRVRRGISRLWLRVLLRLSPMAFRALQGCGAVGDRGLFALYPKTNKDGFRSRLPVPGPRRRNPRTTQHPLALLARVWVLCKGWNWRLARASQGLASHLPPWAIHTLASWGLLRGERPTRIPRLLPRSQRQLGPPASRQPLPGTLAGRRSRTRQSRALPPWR
# [2] = target: T2, TGF-beta receptor type-1 (Homo sapiens) (UniProt P36897); settings: at 1 µM
# T2 sequence (whole entry): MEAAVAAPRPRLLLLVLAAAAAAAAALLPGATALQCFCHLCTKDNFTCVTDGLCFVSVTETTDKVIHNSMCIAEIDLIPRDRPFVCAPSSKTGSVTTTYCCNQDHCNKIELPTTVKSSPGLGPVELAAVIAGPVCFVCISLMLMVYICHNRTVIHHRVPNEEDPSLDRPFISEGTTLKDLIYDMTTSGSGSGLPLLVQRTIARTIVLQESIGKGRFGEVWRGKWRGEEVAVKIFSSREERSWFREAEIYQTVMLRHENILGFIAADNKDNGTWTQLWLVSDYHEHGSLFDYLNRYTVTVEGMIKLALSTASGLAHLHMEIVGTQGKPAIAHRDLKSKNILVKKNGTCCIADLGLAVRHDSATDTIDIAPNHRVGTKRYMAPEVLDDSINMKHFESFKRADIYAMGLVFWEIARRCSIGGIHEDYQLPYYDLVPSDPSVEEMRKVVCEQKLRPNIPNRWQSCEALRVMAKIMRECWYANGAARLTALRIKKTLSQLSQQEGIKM
# [3] = target: Insulin-like growth factor 1 receptor (Homo sapiens) (UniProt P08069); settings: at 1 µM
# [4] = target: Inhibitor of nuclear factor kappa-B kinase subunit alpha (Homo sapiens) (UniProt O15111); settings: at 10 µM
# [5] = target: Inhibitor of nuclear factor kappa-B kinase subunit beta (Homo sapiens) (UniProt O14920); settings: at 1 µM
# [6] = target: Insulin receptor-related protein (Homo sapiens) (UniProt P14616); settings: at 1 µM
# [7] = target: Tyrosine-protein kinase JAK2 (Homo sapiens) (UniProt O60674); settings: at 1 µM
# [8] = target: Tyrosine-protein kinase JAK2 (Homo sapiens) (UniProt O60674); settings: at 10 µM
# [9] = target: Tyrosine-protein kinase JAK3 (Homo sapiens) (UniProt P52333); settings: at 1 µM
# [10] = target: Mitogen-activated protein kinase 8 (Homo sapiens) (UniProt P45983); settings: at 10 µM
# [11] = target: LIM domain kinase 1 (Homo sapiens) (UniProt P53667); settings: at 1 µM
# [12] = target: Tyrosine-protein kinase Lck (Homo sapiens) (UniProt P06239); settings: at 10 µM
# [13] = target: Tyrosine-protein kinase Lck (Homo sapiens) (UniProt P06239); settings: at 1 µM
# [14] = target: Mitogen-activated protein kinase 3 (Homo sapiens) (UniProt P27361); settings: at 1 µM
# [15] = target: Mitogen-activated protein kinase 3 (Homo sapiens) (UniProt P27361); settings: at 10 µM
# [16] = target: Mitogen-activated protein kinase 1 (Homo sapiens) (UniProt P28482); settings: at 1 µM
# [17] = target: Mitogen-activated protein kinase 1 (Homo sapiens) (UniProt P28482); settings: at 10 µM
# [18] = target: MAP kinase-activated protein kinase 3 (Homo sapiens) (UniProt Q16644); settings: at 1 µM
# [19] = target: Dual specificity mitogen-activated protein kinase kinase 1 (Homo sapiens) (UniProt Q02750); settings: at 10 µM
# [20] = target: Misshapen-like kinase 1 (Homo sapiens) (UniProt Q8N4C8); settings: at 1 µM
# [21] = target: Serine/threonine-protein kinase MRCK alpha (Homo sapiens) (UniProt Q5VT25); settings: at 1 µM
# [22] = target: Serine/threonine-protein kinase MRCK alpha (Homo sapiens) (UniProt Q5VT25); settings: at 10 µM
# [23] = target: Serine/threonine-protein kinase MRCK beta (Homo sapiens) (UniProt Q9Y5S2); settings: at 1 µM
# [24] = target: Serine/threonine-protein kinase MRCK beta (Homo sapiens) (UniProt Q9Y5S2); settings: at 10 µM
# [25] = target: Ribosomal protein S6 kinase alpha-5 (Homo sapiens) (UniProt O75582); settings: at 1 µM
# [26] = target: Ribosomal protein S6 kinase alpha-5 (Homo sapiens) (UniProt O75582); settings: at 10 µM
# [27] = target: Ribosomal protein S6 kinase alpha-4 (Homo sapiens) (UniProt O75676); settings: at 1 µM
# [28] = target: SRSF protein kinase 3 (Homo sapiens) (UniProt Q9UPE1); settings: at 1 µM
# [29] = target: SRSF protein kinase 3 (Homo sapiens) (UniProt Q9UPE1); settings: at 10 µM
# [30] = target: Hepatocyte growth factor receptor (Homo sapiens) (UniProt P08581); settings: at 1 µM
smiles,measurement,setting,value
O=C1NC(=O)C(c2cn(CCCO)c3ncccc23)=C1c1cnccn1,residual activity,[1],101%
same,residual activity,[2],103%
same,residual activity,[3],108%
same,residual activity,[4],101%
same,residual activity,[5],102%
same,residual activity,[6],107%
same,residual activity,[7],101%
same,residual activity,[8],95%
same,residual activity,[9],101%
same,residual activity,[10],107%
same,residual activity,[11],97%
same,residual activity,[12],104%
same,residual activity,[13],97%
same,residual activity,[14],95%
same,residual activity,[15],101%
same,residual activity,[16],105%
same,residual activity,[17],101%
same,residual activity,[18],114%
same,residual activity,[19],109%
same,residual activity,[20],104%
same,residual activity,[21],110%
same,residual activity,[22],102%
same,residual activity,[23],102%
same,residual activity,[24],99%
same,residual activity,[25],106%
same,residual activity,[26],110%
same,residual activity,[27],109%
same,residual activity,[28],108%
same,residual activity,[29],102%
same,residual activity,[30],105%
